# Patent US10149876B2, “Tripterygium wilfordii extracts to overcome chemotherapy resistance” (WESTERN UNIVERSITY OF HEALTH SCIENCES, priority 2012, dated 2018)
# Read-outs that look alike come from different tables or passages of the source.
# How the values were obtained:
# Type in all cases: cell-based, human
# [1] = system: BT474/Her cells; experiment: SRB cell viability assay, Herceptin-resistant BT474/Her cells; conditions: 72 h, no LGT-E pre-treatment, background = 0.047
# [2] = system: BT474 cells; experiment: SRB cell viability assay, Herceptin-sensitive BT474 cells; conditions: no sensitizing agent added
# Procedure: Cell culture of the above cell lines was performed as described in Example 2, except that 5,000, rather than 3,000 cells were plated per well for the K562, K562/Dox, BT474, SkBr3 lines.
# Table 17 also contains the serially-diluted concentrations of drugs that each cell line was tested against.
# [3] = system: BT474-TxR cells; experiment: SRB cell viability assay, Herceptin-resistant BT474-TxR cells; conditions: for mean A at 565 nm: 72 h, background = 0.045
substance,measurement,setting,value
trastuzumab [Herceptin ®],mean A at 565 nm,[1]; Trastuzumab 0.001 μM,2.352
same,mean A at 565 nm,[1]; Trastuzumab 0.03 μM,2.204
same,mean A at 565 nm,[1]; Trastuzumab 0.1 μM,2.246
same,mean A at 565 nm,[1]; Trastuzumab 0.3 μM,2.259
same,mean A at 565 nm,[1]; Trastuzumab 1 μM,2.205
same,mean A at 565 nm,[1]; Trastuzumab 3 μM,2.113
same,mean A at 565 nm,[1]; Trastuzumab 10 μM,2.143
same,mean A at 565 nm,[1]; Trastuzumab 30 μM,2.119
same,IC50 of drug when cells treated with drug only,[2],(523 μg/ml)
same,IC50,[2]; read-out: IC50 of drug when cells treated with drug only,3.59 µM
same,IC50 of drug when cells pre-treated with Chemosensitizing Agent before drug treatment,"[3]; Herceptin, BT474-TxR, LGT-E […] pre-treatment",(4366 μg/ml)
same,IC50,"[3]; Herceptin, BT474-TxR, LGT-E […] pre-treatment, read-out: IC50 of drug when cells pre-treated with Chemosensitizing Agent before drug treatment",30 µM
same,IC50 of drug when cells treated with drug only,"[3]; Herceptin, BT474-TxR, line of LGT-E […]",(4366 μg/ml)
same,IC50,"[3]; Herceptin, BT474-TxR, line of LGT-E […], read-out: IC50 of drug when cells treated with drug only",30 µM
same,mean A at 565 nm,"[3]; Trastuzumab 0.001 μM, no LGT-E pre-treatment",2.029
same,mean A at 565 nm,"[3]; Trastuzumab 0.001 μM, pre-treated with 13 μg/ml LGT-E",1.887
same,mean A at 565 nm,"[3]; Trastuzumab 0.2 μM, no LGT-E pre-treatment",2.013
same,mean A at 565 nm,"[3]; Trastuzumab 0.2 μM, pre-treated with 13 μg/ml LGT-E",1.892
same,mean A at 565 nm,"[3]; Trastuzumab 0.667 μM, no LGT-E pre-treatment",2.058
same,mean A at 565 nm,"[3]; Trastuzumab 0.667 μM, pre-treated with 13 μg/ml LGT-E",1.901
same,mean A at 565 nm,"[3]; Trastuzumab 2 μM, no LGT-E pre-treatment",2.126
same,mean A at 565 nm,"[3]; Trastuzumab 2 μM, pre-treated with 13 μg/ml LGT-E",2.020
same,mean A at 565 nm,"[3]; Trastuzumab 6.67 μM, no LGT-E pre-treatment",2.050
same,mean A at 565 nm,"[3]; Trastuzumab 6.67 μM, pre-treated with 13 μg/ml LGT-E",1.546
same,mean A at 565 nm,"[3]; Trastuzumab 20 μM, no LGT-E pre-treatment",1.682
same,mean A at 565 nm,"[3]; Trastuzumab 20 μM, pre-treated with 13 μg/ml LGT-E",1.013
same,mean A at 565 nm,"[3]; Trastuzumab 66.7 μM, no LGT-E pre-treatment",1.941
same,mean A at 565 nm,"[3]; Trastuzumab 66.7 μM, pre-treated with 13 μg/ml LGT-E",1.056
same,mean A at 565 nm,"[3]; Trastuzumab 200 μM, no LGT-E pre-treatment",1.960
same,mean A at 565 nm,"[3]; Trastuzumab 200 μM, pre-treated with 13 μg/ml LGT-E",1.538
